The target of experiment [1] is Histone deacetylase 9 (Homo sapiens, UniProt Q9UKV0). Nature of the experiment: Inhibition of human HDAC9.
The target in experiment [2] is Histone deacetylase 5 (Homo sapiens, UniProt Q9UQL6). Description: Inhibition of human HDAC5.

Amino acid sequences for entries named in this document (tags omitted). A change or cut given only in a name is not applied to a line headed by its entry.
UniProt Q9UKV0: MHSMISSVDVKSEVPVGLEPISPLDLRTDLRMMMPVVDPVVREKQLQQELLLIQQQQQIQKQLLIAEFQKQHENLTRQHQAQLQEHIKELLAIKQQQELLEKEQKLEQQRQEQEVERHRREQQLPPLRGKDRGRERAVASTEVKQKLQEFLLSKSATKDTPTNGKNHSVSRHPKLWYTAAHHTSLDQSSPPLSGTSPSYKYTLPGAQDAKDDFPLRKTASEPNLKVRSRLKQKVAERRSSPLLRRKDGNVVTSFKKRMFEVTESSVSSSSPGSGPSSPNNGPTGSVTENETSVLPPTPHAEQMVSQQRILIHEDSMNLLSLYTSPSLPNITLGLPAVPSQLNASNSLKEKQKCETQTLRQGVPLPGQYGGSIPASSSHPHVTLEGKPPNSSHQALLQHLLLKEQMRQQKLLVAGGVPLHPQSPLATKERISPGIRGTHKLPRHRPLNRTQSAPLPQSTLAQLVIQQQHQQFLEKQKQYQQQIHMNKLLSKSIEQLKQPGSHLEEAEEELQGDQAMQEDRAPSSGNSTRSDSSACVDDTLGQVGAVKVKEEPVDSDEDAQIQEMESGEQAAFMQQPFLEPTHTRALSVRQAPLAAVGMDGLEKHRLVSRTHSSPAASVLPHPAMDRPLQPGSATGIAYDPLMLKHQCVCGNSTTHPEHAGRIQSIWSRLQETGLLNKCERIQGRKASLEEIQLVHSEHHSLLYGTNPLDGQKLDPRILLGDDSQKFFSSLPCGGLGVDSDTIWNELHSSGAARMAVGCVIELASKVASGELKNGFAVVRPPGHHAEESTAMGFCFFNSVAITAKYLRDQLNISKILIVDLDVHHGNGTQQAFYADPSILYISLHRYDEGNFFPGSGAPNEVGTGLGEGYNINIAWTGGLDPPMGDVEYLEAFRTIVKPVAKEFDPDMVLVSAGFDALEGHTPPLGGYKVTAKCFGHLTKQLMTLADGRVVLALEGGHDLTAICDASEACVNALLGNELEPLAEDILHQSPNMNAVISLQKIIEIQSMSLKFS
UniProt Q9UQL6: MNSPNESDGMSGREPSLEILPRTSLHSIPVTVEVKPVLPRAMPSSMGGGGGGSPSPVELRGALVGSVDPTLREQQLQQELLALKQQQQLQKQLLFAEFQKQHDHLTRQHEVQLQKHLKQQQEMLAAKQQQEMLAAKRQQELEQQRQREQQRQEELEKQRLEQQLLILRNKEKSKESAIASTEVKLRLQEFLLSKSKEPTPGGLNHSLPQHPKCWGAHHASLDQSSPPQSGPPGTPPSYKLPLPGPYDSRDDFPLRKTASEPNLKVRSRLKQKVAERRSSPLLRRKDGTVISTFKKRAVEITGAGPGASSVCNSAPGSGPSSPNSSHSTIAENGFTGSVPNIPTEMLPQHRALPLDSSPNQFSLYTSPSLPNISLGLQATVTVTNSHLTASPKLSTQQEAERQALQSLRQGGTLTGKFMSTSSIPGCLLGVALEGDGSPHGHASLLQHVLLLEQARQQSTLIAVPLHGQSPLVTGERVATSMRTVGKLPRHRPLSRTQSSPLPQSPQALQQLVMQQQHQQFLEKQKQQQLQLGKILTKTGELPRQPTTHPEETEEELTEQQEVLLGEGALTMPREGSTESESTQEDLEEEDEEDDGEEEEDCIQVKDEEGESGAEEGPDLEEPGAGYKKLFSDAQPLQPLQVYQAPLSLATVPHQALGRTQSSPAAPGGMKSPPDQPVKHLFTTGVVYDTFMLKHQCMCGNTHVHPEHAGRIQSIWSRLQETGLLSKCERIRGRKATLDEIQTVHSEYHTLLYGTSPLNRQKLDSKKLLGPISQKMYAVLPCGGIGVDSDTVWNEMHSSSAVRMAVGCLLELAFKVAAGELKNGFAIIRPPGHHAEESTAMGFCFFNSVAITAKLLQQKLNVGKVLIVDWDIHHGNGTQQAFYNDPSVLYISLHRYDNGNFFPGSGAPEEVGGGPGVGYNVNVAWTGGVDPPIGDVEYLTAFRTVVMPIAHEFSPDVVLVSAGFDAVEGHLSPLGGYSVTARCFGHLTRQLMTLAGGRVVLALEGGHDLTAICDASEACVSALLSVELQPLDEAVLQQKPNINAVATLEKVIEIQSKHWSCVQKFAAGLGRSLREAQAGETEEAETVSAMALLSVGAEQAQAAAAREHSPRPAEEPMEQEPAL

Structures are written as SMILES.

Broadly, the IC50 is the concentration at which inhibition is half-maximal. A high value points to weaker potency. On to `CC(/C=C/C(=O)NO)=C\[C@@H](C)C(=O)c1ccc(N(C)C)cc1` [TRICHOSTATIN], for which the IC50 in experiment [1] came out at 38 nM; in experiment [2] it was 16 nM.
